# Measurements taken from IntAct's records for PubMed 35512704.
# B1: RAC-alpha serine/threonine-protein kinase (Homo sapiens), P31749 (parent)
# chain: MSDVAIVKEGWLHKRGEYIKTWRPRYFLLKNDGTFIGYKERPQDVDQREAPLNNFSVAQCQLMKTERPRPNTFIIRCLQWTTVIERTFHVETPEEREEWTTAIQTVADGLKKQEEEEMDFRSGSPSDNSGAEEMEVSLAKPKHRVTMNEFEYLKLLGKGTFGKVILVKEKATGRYYAMKILKKEVIVAKDEVAHTLTENRVLQNSRHPFLTALKYSFQTHDRLCFVMEYANGGELFFHLSRERVFSEDRARFYGAEIVSALDYLHSEKNVVYRDLKLENLMLDKDGHIKITDFGLCKEGIKDGATMKTFCGTPEYLAPEVLEDNDYGRAVDWWGLGVVMYEMMCGRLPFYNQDHEKLFELILMEEIRFPRTLGPEAKSLLSGLLKKDPKQRLGGGSEDAKEIMQHRFFAGIVWQHVYEKKLSPPFKPQVTSETDTRYFDEEFTAQMITITPPDQDDSMECVDSERRPHFPQFSYSASGTA
# partner: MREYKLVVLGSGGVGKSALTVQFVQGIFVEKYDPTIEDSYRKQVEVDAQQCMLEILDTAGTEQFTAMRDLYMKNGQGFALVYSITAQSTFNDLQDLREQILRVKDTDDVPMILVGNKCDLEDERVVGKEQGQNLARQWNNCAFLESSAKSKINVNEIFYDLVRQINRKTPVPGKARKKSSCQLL
# B2: RAC-alpha serine/threonine-protein kinase (Homo sapiens), P31749 (parent)
# chain: B1 chain
# partner: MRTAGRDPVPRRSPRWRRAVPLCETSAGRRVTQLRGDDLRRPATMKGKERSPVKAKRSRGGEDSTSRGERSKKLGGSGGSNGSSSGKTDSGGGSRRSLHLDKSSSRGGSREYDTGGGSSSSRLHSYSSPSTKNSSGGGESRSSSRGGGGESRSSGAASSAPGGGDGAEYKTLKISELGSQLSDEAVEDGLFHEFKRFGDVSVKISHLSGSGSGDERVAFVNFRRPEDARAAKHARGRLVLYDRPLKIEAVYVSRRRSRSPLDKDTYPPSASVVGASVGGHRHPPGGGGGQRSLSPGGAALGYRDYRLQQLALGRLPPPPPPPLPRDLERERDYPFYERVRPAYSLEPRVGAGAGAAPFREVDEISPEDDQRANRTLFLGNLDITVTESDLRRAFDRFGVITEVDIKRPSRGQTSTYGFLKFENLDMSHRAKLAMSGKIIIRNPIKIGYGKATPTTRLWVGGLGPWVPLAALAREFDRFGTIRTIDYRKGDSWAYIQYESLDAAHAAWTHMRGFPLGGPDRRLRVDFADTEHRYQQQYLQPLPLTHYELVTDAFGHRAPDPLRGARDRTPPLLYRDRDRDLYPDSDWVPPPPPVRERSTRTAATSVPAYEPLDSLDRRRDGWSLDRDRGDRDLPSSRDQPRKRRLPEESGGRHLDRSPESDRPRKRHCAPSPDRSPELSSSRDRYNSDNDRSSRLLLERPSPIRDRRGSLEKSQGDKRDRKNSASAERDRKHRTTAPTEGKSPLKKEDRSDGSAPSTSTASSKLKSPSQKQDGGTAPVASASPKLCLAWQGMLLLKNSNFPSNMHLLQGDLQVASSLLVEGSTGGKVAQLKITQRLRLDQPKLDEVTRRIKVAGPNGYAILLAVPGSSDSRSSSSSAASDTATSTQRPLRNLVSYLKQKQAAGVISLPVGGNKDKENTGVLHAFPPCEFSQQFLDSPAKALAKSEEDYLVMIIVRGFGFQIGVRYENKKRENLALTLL
# B3: RAC-alpha serine/threonine-protein kinase (Homo sapiens), P31749 (parent)
# chain: B1 chain
# partner: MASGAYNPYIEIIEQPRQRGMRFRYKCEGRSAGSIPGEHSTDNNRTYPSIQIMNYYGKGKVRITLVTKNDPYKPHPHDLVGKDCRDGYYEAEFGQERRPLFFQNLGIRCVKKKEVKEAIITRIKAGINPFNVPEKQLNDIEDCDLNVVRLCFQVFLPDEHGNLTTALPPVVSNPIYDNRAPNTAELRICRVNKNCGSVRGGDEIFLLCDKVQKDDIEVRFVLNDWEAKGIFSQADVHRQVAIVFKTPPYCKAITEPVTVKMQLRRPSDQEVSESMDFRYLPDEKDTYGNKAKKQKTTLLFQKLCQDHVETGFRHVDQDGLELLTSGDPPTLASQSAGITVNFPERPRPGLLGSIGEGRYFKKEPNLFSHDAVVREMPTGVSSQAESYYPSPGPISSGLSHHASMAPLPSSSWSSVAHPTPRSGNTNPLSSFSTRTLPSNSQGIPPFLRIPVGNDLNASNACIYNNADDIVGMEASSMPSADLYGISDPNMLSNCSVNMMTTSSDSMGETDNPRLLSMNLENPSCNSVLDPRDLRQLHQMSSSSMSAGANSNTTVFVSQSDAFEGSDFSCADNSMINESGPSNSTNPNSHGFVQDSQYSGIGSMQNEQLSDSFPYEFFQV
# B4: RAC-alpha serine/threonine-protein kinase (Homo sapiens), P31749 (parent)
# chain: B1 chain
# partner: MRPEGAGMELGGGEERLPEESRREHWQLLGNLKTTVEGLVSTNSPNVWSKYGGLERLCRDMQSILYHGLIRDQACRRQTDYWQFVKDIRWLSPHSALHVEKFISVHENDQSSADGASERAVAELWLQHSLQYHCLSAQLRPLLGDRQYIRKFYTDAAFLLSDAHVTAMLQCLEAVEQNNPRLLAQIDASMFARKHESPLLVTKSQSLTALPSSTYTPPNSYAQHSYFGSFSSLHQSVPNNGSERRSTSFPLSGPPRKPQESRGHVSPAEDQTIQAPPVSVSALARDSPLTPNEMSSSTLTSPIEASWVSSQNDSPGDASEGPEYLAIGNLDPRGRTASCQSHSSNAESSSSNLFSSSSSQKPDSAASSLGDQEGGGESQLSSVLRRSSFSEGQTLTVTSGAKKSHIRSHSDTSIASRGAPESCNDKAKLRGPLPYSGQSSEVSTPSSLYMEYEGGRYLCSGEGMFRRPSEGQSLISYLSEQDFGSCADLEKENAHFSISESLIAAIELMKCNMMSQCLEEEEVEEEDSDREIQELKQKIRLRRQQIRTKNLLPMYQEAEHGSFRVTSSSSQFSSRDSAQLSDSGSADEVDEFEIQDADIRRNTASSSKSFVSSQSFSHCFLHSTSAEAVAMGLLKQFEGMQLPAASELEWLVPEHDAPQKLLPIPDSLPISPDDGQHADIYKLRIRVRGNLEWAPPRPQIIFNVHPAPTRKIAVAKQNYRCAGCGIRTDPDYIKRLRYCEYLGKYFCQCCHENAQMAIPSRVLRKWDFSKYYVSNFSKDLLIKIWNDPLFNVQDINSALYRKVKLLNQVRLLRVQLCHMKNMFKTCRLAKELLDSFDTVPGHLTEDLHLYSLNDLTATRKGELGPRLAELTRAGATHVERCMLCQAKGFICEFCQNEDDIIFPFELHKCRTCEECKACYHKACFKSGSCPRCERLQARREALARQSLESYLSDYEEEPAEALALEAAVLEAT
# B5: RAC-alpha serine/threonine-protein kinase (Homo sapiens), P31749 (parent)
# chain: B1 chain
# partner: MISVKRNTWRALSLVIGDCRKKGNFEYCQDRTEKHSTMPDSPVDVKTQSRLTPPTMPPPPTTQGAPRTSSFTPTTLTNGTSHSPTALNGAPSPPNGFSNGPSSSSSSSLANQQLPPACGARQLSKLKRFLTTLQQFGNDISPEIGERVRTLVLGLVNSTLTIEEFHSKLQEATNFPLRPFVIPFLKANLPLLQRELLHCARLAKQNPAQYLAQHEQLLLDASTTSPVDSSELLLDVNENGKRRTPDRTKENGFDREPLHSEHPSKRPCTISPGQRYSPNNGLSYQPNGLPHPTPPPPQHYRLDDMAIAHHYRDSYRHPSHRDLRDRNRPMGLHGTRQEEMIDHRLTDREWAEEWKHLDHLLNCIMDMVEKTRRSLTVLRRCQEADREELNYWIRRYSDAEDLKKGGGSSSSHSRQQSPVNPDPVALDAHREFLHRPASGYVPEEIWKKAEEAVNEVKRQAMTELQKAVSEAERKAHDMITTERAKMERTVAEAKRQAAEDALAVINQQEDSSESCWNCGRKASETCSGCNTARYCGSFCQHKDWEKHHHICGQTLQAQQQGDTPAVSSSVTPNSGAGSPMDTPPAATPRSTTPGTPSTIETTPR
# Variants of: B1
# Details: with rap1b_human RAP1B
row,Variant,effect of a mutation on the interaction
1,E17K,with no effect

# Variants of: B2
# Details: with rbm15_human RBM15, Q96T37
row,Variant,effect of a mutation on the interaction
1,E17K,with no effect

# Variants of: B3
# Details: with rel_human REL
row,Variant,effect of a mutation on the interaction
1,E17K,with no effect

# Variants of: B4
# Details: with rubic_human RUBCN
row,Variant,effect of a mutation on the interaction
1,E17K,with no effect

# Variants of: B5
# Details: with mtg8_human RUNX1T1, Q06455
row,Variant,effect of a mutation on the interaction
1,E17K,with no effect
